Assay results as given in article PMC11093982, “Structural and mechanistic insights into Quinolone Synthase to address its functional promiscuity” (Communications Biology, 2024).

Sequences of proteins named here, by UniProt entry; tags and fusion partners are left off.
UniProt M1HE54, entry or part of it: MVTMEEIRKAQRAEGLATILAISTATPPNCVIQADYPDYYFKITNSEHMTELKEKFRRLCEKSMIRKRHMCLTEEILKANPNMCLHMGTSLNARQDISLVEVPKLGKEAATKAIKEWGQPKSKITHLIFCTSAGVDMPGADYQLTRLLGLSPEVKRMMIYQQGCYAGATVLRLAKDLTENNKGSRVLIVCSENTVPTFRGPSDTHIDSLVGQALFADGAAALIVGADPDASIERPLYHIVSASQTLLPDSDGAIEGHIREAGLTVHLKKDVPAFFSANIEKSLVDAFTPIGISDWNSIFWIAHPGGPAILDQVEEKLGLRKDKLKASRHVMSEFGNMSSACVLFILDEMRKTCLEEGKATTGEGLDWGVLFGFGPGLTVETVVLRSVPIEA

Molecular target: AmQNS (quinolone synthase) (Aegle marmelos, UniProt M1HE54)
Experiment: Surface plasmon resonance (SPR) AmQNS-substrate interaction studies
Assay type: binding
Excerpt: ProteOn XPR array system[21] and ‘GLM’ sensor chip was used for the SPR interaction studies. […] Here, amine coupling works, where the amine groups present in the AmQNS covalently bind to the chemically activated carboxyl groups of the dextran molecules. Channel L3 and L4 were used for immobilization of protein while L2 was used as reference. The extent of non-specific interactions was eliminated or reduced by optimizing the buffer conditions. […] N-methylanthraniloyl-CoA was purchased from TransMIT (Plant MetaChem, www.plantmetachem.com), whereas all other substrates were purchased from Sigma-Aldrich (www.sigmaaldrich.com).
Following AmQNS immobilization and its stability screening, all binding studies were done at 30 °C. […] The sensogram was prepared by processing the data (after subtraction of L2 responses (reference channel). Baseline drift due to the bulk refractive index change, non-specific binding, matrix effects and injection noise were also corrected using the reference spots. Further, the responses obtained from the AmQNS-small molecular interactions at different concentrations were fitted using the Langmuir 1:1 biomolecular interaction model using the ProteOn Manager software version 3.1.0.6 (Bio-Rad, USA). Equilibrium dissociation constants (KD) were calculated from the ratio of the association and dissociation rates.

CCCCCCCCCCCCCC(=O)SCCNC(=O)CCNC(=O)[C@H](O)C(C)(C)COP(=O)(O)OP(=O)(O)OC[C@H]1O[C@@H](n2cnc3c(N)ncnc32)[C@H](O)[C@@H]1OP(=O)(O)O [Myristoyl-CoA]
Kd: 310 nM
